scFv variants of Ab-14 (light chain) against a SARS-CoV-2 spike peptide

All variants were tested on one target, the spike HR2 peptide PDVDLGDISGINAS (SARS-CoV-2).

The variants keep the heavy chain, the linker and the frameworks of Ab-14 (scFv order VH, a (GGGGS)3 linker, VL).
VH: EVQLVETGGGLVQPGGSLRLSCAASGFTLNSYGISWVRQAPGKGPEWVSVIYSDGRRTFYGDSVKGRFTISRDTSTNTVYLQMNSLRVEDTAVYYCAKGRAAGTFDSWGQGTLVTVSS
VL: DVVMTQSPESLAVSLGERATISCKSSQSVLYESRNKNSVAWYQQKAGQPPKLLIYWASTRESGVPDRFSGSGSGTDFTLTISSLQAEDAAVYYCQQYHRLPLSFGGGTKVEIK

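Phage display of a naive human antibody library on the peptide gave the parent. The variants were designed computationally from a first round of random CDR variants and then made and measured. Several design methods are mixed in this list. The assay is AlphaSeq: two haploid yeast populations carry antibody and antigen on their surface. The frequency of each diploid, read from paired DNA barcodes, reflects how well the two displayed proteins bind. Each replicate has its own calibration line, from reference interactions of the BCL2 family. Mating was done six times.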

The parent's light chain CDRs are KSSQSVLYESRNKNSVA, WASTRES, QQYHRLPLS; each variant's own CDRs replace them letter for letter.
Kd is apparent (estimated from mating counts) and averaged on the log scale over replicates with a signal. Smaller is tighter.
"not detected" marks a missing value. The strain was present, yet no cells mated with the target were sequenced in any replicate, which points to weak or no binding.
A sequence measured in both rounds can read differently, since the two assays cover different ranges.

CDR-L1,CDR-L2,CDR-L3,apparent Kd,replicates with signal,signal with controls
HLSQSVLYEERNKNSVA,NASQRES,QQYHRLPLS,280 pM,6/6,1/18
KFSQSELTESRNKNSVA,WASTRES,QQYHRLPLS,6.1 nM,6/6,1/18
KSSQSVLYESRNKNSVA,WASTRES,QQDHRLPLS,110 nM,1/6,0/18
HISQSVGMTSRNHNSVA,ENSTRED,QQYDRLPLS,40 nM,5/6,1/18
KLSQSVMYESRNKNSVA,QASTRES,QQYHRLPLS,3.6 nM,6/6,0/18
TLTQVTMVESYLKNSVA,QASTRLE,QDYHRLPLS,8.6 nM,6/6,0/18
KLSQSVEYESRNKNSVA,AASTRES,QQYHRLPLS,560 pM,6/6,2/18
QLNEYKHETMAKTQNIA,DMTIRED,QQYAHLPLA,760 pM,6/6,0/18
KIQQEGYYEDRNKNSVA,SASTRCP,QQYHRLPLS,1.2 nM,6/6,0/18
KVSEFMRGLMSRQDSIA,DNVTRNS,QQYDRLPLS,38 nM,3/6,2/18
QFFSRFGQLTEISQAVA,DATEVAD,QQYMHLPLT,5.4 nM,6/6,0/18
KFEQSELYESRNKNSVA,NASQRES,QQYHRLPLS,1.4 nM,6/6,0/18
NIQDAEGGLSSQWNSVA,STEERSD,QSYHRLPLS,14 nM,6/6,0/18
MISTLTMYGSRNVNSVA,DLSTRGS,QQYHRLPLS,6.1 nM,6/6,0/18
KMQQSGSYESRNKNSVA,WASTRES,QQYHRLPLP,8.1 nM,6/6,1/18
TGNVELAQGVHEMNNVA,DGDQKLD,QQYYRLPLA,2.2 nM,6/6,1/18
MLSEFMHMLGAKKNSIA,DLVVRAN,QQYHRLPLS,30 nM,6/6,2/18
KTSQSVLYESRNSNSVA,WASTRES,QQYHRLPLS,46 nM,5/6,0/18
NVGQLMDGETRNHNSVA,HQSTRED,QHYHRLPLS,100 nM,6/6,0/18
KLSQSMLYESRNKNSVA,DASTRLS,QQYHRLPLS,410 pM,6/6,0/18
KFSQGVLYESRNKNSVA,GASTRES,QQYHRLPLS,1.0 nM,6/6,0/18
KSSQPVLYESRNKNSVA,WASTRES,QQYHQLPLS,70 nM,2/6,0/18
HSSPSGLYESRNKNSVA,NASTRES,QQYHRLPLQ,1.6 nM,6/6,0/18
MLSQMTGLGMKAKNSVA,QANMRFD,QQYHRLPLM,5.2 nM,6/6,1/18
KSSQSLLYTSRNKNSVA,GASTRES,QQYHRLPLS,29 nM,6/6,0/18
KVVQSVNGLQRAKNSVA,EASTRES,QQYHRLPLS,6.3 nM,6/6,1/18
QIDSFYQHGTDQKKAMA,DGSVRTQ,QQYSRLPLS,900 pM,6/6,3/18
KVSQLEPYESRNKNSVA,NASTREH,QQYHRLPLS,470 pM,6/6,1/18
KSSQSWLYESRNKNSVA,GASTREN,QQYHRLPLM,380 pM,6/6,3/18
KSSQSVQYESRNKNSVA,WASTRWK,QQYHWLPLS,not detected,0/6,0/18
ILSMSELYEDRMKNSVA,NASQREQ,QQYHRLPLS,140 nM,5/6,1/18
KSSQSVLHESRNCNSVA,RASTRNS,QQYHRLPLS,not detected,0/6,0/18
MVYSAVMMGGSARNSIA,NAQMRPD,QQYHRLPLI,not detected,0/6,0/18
MVTQMAMSGMTNKRNVA,NAETRED,QQYHRLPLI,9.6 nM,6/6,3/18
KISQSVLYESRHKNSVA,WASTRES,QQYHRLPLS,8.4 nM,6/6,2/18
TISQVMNTLSRQGNNVA,DLAERER,QQYFRLPLS,11 nM,6/6,1/18
KSAASELLESRNKNSVA,SASTREV,QQYHRLPLS,830 pM,6/6,1/18
HLSDTTMQGSYYRNSVA,QESTRAD,QQYHRLPLS,4.0 nM,6/6,1/18
KDSQSVKFESRNKNSVA,DASTRES,QQYHRLPLS,5.9 nM,6/6,0/18
AISFEMMSPHNHSNSVA,SESKRCS,QQYFTLPLS,13 nM,6/6,2/18
GVTHTMESGKQAPNSIA,NAEQLQI,QQYQRLPLS,14 nM,6/6,0/18
KISQSVLYESRNKNSVA,NASQRLS,QQYHRLPLS,980 pM,6/6,0/18
KSSQSFLYESRNKNAVA,GASTRES,QQYMRLTLS,1.2 nM,6/6,0/18
KNSQSVPYESRNKNSVA,DASTRES,QQYHRLPLL,870 pM,6/6,0/18
TISGVMQQMTHSKNNVA,EVSTRLE,QQYFRLPLE,2.9 nM,6/6,0/18
QLAESAHMESRNKNSVA,DNSTRES,QHYDRLPLS,47 nM,1/6,0/18
MMSQVTMSGMRHRNNVA,QTSAREP,QQYDRLPLI,11 nM,6/6,0/18
KSSQSVLYESLNKNSVA,KASTRES,QQYHRLPLS,11 nM,6/6,0/18
KLSQSVLFESRNKNSVA,DASFRES,QQYHRLPLS,550 pM,6/6,0/18
KVSGSMLYESRNKNSVA,EASTRES,QQYHRLPLS,430 pM,6/6,2/18

The authors' rule: three or more of the six replicates give a measured affinity, fewer mean a poor binder.
The parent sequence was in this pool as ten entries: three were never detected, three once, and four in most replicates, with averages from 2.2 nM to 240 nM.
Empty control strains, which show no peptide, gave a signal in 4% of pairings with all light chain designs; the median was 430 nM and 95% of these signals were weaker than 38 nM. No background was subtracted. The control count says in how many pairings with the empty strains this scFv gave a signal.

From the AlphaSeq antibody data of Li et al. 2023 (doi:10.1038/s41467-023-39022-2), copy in the FLAb collection.